This is an account of results in patent publication US20250221987A1, “PIPERAZINO RING-CONTAINING DERIVATIVE, PHARMACEUTICALLY ACCEPTABLE SALT THEREOF, PREPARATION METHOD THEREFOR, AND APPLICATION THEREOF” (ACERAND THERAPEUTICS (HONG KONG) LIMITED, priority 2022, published 2025).

The subject of the assay is MDA-MB-436 cells. The assay is described as follows: Proliferation activity assay of MDA-MB-436 cells (CellTiter-Glo). The class given is cell-based. Particulars: 4000 cells seeded, 6 days incubation; read-out: MDA-MB-436 proliferation inhibition IC50. The protocol:
Complete culture medium was prepared and mixed thoroughly. The cells were resuscitated and cultured for about two passages to select a cell line in good growth condition. The cell culture flask was removed from the incubator. Cell adherence: the culture medium was aspirated, then the cells were washed once with trypsin to discard the waste liquid, and 3 mL of fresh trypsin was added to the culture flask for digestion. When the cells were loose to be detached from the wall of the flask, 8 mL of complete culture medium was added thereto to stop trypsin digestion and mixed gently. The cell suspension was transferred to a centrifuge tube with a pipette and centrifuged at 1000 rpm for 5 minutes. The supernatant was discarded. An appropriate volume of culture medium was added to the centrifuge tube and pipetted gently to resuspend the cells evenly. The cells were counted using a Vi-Cell XR cell counter. The cell suspension was adjusted to an appropriate concentration. The cell suspension was added to a 96-well plate at 100 µL/well. The details such as cell name, seeding density, and date were labelled, and the culture plate was placed in a CO2 incubator overnight.
The compound to be tested was prepared into a 10 mM stock solution, which was aliquoted and stored in a −20° C. freezer. The compound solution was added to a 96-well plate using HPD300. The plate was incubated in a CO2 incubator for a total of 6 days.
CellTiter-Glo buffer was melted at room temperature. The lyophilized CellTiter-Glo substrate was equilibrated to room temperature. CellTiter-Glo buffer was added to the CellTiter Glo substrate and mixed thoroughly. A cell plate was taken out and equilibrated to room temperature. 100 μL of mixed CellTiter Glo reagent was added to each well, and the mixture was shaken in the dark for 10 minutes, followed by incubation for 20 minutes. The culture plate was placed into an Enspire reading plate, and the luminescence reading results were recorded. […] A pharmacodynamic inhibition rate curve was plotted by using XLFit, and the IC50 value was calculated. […]
On the technique in general: Cellular ATP, detected with luciferase, serves as a proxy for viable cell number.
`CNC(=O)c1ccc(N2CCN(Cc3cnc4cc(C5CC5)c(=O)[nH]c4c3)[C@H]3CC[C@H]32)cn1` [Example 16-1]: the IC50 is 5 nM.

As for `CNC(=O)c1ccc(N2CCN(Cc3cnc4c(F)c(C)c(=O)[nH]c4c3)[C@@H]3CCC32)cn1` (stereo partly drawn) [Example 41-2], the IC50 amounted to 5 nM. For `CNC(=O)c1ccc(N2CCN(Cc3ccc4nc(C(C)(F)F)c(=O)[nH]c4c3)[C@@H]3CCC32)cn1` (stereo partly drawn) [Example 42-2], the IC50 is 8 nM.
